{"sequences": {"note": "By UniProt entry, the sequences of proteins in these tests, tags left out.", "UniProt P18901, whole entry": "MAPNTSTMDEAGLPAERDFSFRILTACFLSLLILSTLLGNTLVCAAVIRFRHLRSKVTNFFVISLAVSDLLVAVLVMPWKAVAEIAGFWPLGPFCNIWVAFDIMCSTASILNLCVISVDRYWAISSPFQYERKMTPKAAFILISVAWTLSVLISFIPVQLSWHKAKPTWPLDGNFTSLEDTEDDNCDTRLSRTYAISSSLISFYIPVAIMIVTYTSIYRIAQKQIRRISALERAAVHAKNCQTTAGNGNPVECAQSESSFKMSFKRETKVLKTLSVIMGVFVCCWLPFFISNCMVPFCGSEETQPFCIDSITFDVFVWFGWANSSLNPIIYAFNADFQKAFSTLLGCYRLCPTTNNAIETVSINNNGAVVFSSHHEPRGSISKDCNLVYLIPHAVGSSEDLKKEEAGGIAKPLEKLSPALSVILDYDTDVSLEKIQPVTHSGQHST"}, "source": "BindingDB's records for doi:10.1016/0893-133X(94)00129-N", "about": "(Eli Lilly, 1996)", "biological_target": "D(1A) dopamine receptor (Rattus norvegicus, UniProt P18901)", "data": [{"smiles": "Cc1nc2n(c(=O)c1CCN1CCC(c3noc4cc(F)ccc34)CC1)CCCC2", "note": "[3-{2-[4-(6-Fluoro-benzo[d]isoxazol-3-yl)-piperidin-1-yl]-ethyl}-2-methyl-6,7,8,9-tetrahydro-pyrido[1,2-a]pyrimidin-4-one(risperidone)]", "values": [{"measurement": "Ki", "value": 75, "unit": "nM"}]}]}
